# Binding of CDR-mutated scFvs to a peptide of the spike HR2 region

All variants were tested on one target, the spike HR2 peptide PDVDLGDISGINAS (SARS-CoV-2).

Parent: Ab-14, a human scFv built as VH, three GGGGS repeats, VL. Only the CDRs of the heavy chain vary.
VH: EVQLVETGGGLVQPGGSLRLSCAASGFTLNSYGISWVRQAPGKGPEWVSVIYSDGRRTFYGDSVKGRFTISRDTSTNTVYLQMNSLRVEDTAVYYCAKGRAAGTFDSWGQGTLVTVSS
VL: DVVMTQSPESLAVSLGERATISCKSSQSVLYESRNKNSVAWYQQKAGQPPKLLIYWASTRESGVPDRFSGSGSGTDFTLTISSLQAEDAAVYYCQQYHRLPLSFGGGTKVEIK

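Phage display of a naive human antibody library on the peptide gave the parent. Library AAYL49 holds single substitutions and randomly drawn double and triple substitutions in the CDRs. AlphaSeq pools MATa yeast showing the antibodies with MATalpha yeast showing the peptide. Mating (16 h, 30 °C) was followed by selection of diploids and sequencing of their barcodes. Read counts were normalised to the haploid input and turned into Kd by a linear fit to BCL2-family pairs of known affinity, for each replicate. Mating was done three times.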

Substitutions are numbered in sequence along the VH above, starting at 1 (not Kabat).
Numbers give log10(Kd / nM), so 0 is 1 nM and 3 is 1 µM. Smaller is tighter.
Where no diploid with the target was found in that replicate, the entry reads "nd": below detection, most likely a poor binder, though not proof of it.
Parent in this assay: reference entry 0.65, copy in this library 4.11 (one replicate of three).
Empty control strains, which show no peptide, gave a signal in 15% of pairings with library AAYL49; the median was 4.06 and 95% of these signals were weaker than 2.83. No background was subtracted. For each scFv, signals with the empty controls are counted beside the result, with their mean in brackets.

| # | changes | log10 Kd, replicates | empty controls |
|---|---|---|---|
| 1 | G26R/L29P/A102C | 5.15 3.57 6.23 | 3 of 9 (4.09) |
| 2 | D54Q/G55C/K65R | nd nd 4.71 | 0 of 9 |
| 3 | L29W/S107G | 3.85 nd 4.65 | 3 of 9 (4.22) |
| 4 | N30T/Y52D/S53N | nd nd nd | 2 of 9 (3.34) |
| 5 | I34S/G55H | nd nd 4.28 | 1 of 9 (3.74) |
| 6 | N30A/I51Q | nd nd nd | 1 of 9 (3.71) |
| 7 | T28I/Y52H/R100I | nd nd 4.19 | 0 of 9 |
| 8 | G26C/T28L/I51M | nd nd nd | 1 of 9 (3.18) |
| 9 | F27H/S53D | nd nd nd | 1 of 9 (2.90) |
| 10 | Y32V/G33M | nd nd nd | 0 of 9 |
| 11 | D54Q/S63R/S107D | 4.28 nd 4.42 | 2 of 9 (4.08) |
| 12 | L29Q/G33T/R57A | 5.07 nd nd | 1 of 9 (4.14) |
| 13 | N30M/G103S | nd nd nd | 0 of 9 |
| 14 | G26L/S35I/V50M | nd nd nd | 0 of 9 |
| 15 | S31V/G33T/G61N | 1.38 1.20 1.39 | 1 of 9 (3.32) |
| 16 | S35V/G61A/S63R | nd 5.20 nd | 0 of 9 |
| 17 | T28F/Y52F/K65V | nd nd nd | 0 of 9 |
| 18 | T28E/S35W/V50I | 6.27 4.28 nd | 6 of 9 (4.49) |
| 19 | S53N/R57M/D106L | nd nd nd | 1 of 9 (3.96) |
| 20 | G33V/V50Q/T58K | nd nd nd | 3 of 9 (4.07) |
| 21 | G55I/S63W | nd nd nd | 0 of 9 |
| 22 | S53Q/G55S/D62C | nd nd nd | 0 of 9 |
| 23 | G33S/S53V/D54A | nd 3.81 5.48 | 3 of 9 (3.71) |
| 24 | R57N/S63Y/A102R | nd nd nd | 0 of 9 |
| 25 | I34D/K65I/T104L | nd nd nd | 1 of 9 (4.58) |
| 26 | G26L/I34F/G55M | nd nd nd | 1 of 9 (4.69) |
| 27 | G61I/K65S/A101Q | 1.52 1.45 1.46 | 2 of 9 (5.54) |
| 28 | V50I/F105Q | 2.02 2.07 2.05 | 5 of 9 (4.71) |
| 29 | L29Q/S53N/F59D | 6.40 4.27 nd | 4 of 9 (4.20) |
| 30 | Y60W/V64T/A102N | nd nd nd | 1 of 9 (1.65) |
| 31 | S53P/G61N/A101W | 5.40 nd nd | 3 of 9 (3.59) |
| 32 | T28E/S31I/G103N | 4.71 3.66 5.12 | 3 of 9 (4.54) |
| 33 | K65E/S107N | 0.88 1.07 1.03 | 1 of 9 (4.56) |
| 34 | S53Q/D54K/R56A | nd nd nd | 6 of 9 (4.03) |
| 35 | G26Y/I51Y/S53C | 5.62 nd nd | 0 of 9 |
| 36 | V50N | nd nd 4.06 | 4 of 9 (4.05) |
| 37 | R57W/A101K | 5.54 3.67 nd | 2 of 9 (3.87) |

The first 3 entries again:

| changes | log10 Kd, replicates | empty controls |
|---|---|---|
| G26R/L29P/A102C | 5.15 3.57 6.23 | 3 of 9 (4.09) |
| D54Q/G55C/K65R | nd nd 4.71 | 0 of 9 |
| L29W/S107G | 3.85 nd 4.65 | 3 of 9 (4.22) |

From the AlphaSeq antibody data of Engelhart et al. 2022 (doi:10.1038/s41597-022-01779-4), copy in the FLAb collection.